Measurements: patent publication US20090143761A1, “AGENT DELIVERY SYSTEM AND USES OF SAME” (T[…] COMPANY, LLC, priority 2005, published 2009)

Assay: Saliva and interstitial fluid melatonin after melatonin ingestion, melatonin EIA, clinical trial samples
Format: in vivo, human
Settings: four out of the five volunteers
Method: Melatonin EIA: Fluid samples were assayed using a commercially available direct saliva melatonin EIA (American Laboratory Products, Cat. No. 001-EK-DSM). This is a competitive binding assay. The samples, controls, and standards are incubated with melatonin biotin conjugate for three hours and a binding competition for a melatonin antibody, which is bound to the microtiter plate, occurs between the melatonin conjugate and the melatonin in the samples. The more melatonin that is present in the sample, the less biotin conjugate is bound. After three hours the plate was washed and enzyme label was added for one hour during which time binding between the conjugate and enzyme occurs. After one hour, the plate was washed and TMB substrate was added. […] Stop solution is added after a thirty minute incubation, and the plate was read using a BioTek EL800 microplate reader.
RESULTS: The concentrations of melatonin in the samples and controls were computed using the 4-parameter logistic model available in the BioTek KC Junior software. […] This gave melatonin values that were due solely to melatonin ingestion and removed any background readings due to cross reactivity to other interstitial fluid or saliva components as well as any background measurements due to the matrix of the iontophoresis electrode buffer itself.

COc1ccc2[nH]cc(CCNC(C)=O)c2c1
increase in interstitial fluid melatonin after ingestion, mean: 9.0 ± 6.2 pg/mL
